Measured values from US9993462B2, “Hydantoin derivative-containing pharmaceutical composition” (Chugai Seiyaku Kabushiki Kaisha, priority 2014, dated 2018).

Tested on: rabbit articular chondrocytes
Test: Suppression of terminal differentiation of rabbit articular chondrocytes (alkaline phosphatase and alizarin red staining)
Assay type: cell-based
Conditions: BMP-2 100 ng/mL, Compound 7 10^−7 to 10^−5 mol/L, PTH(1-34) 10^−10 to 10^−7 mol/L
Description: NZW rabbits (4-week old, Oriental Yeast Co., Ltd.) were euthanized, and then the articular cartilage of the lower leg bone was collected, and transferred to a 50-mL test tube (Nippon Becton Dickinson Company). PBS (Nacalai Tesque, Inc.) containing 1% trypsin (Wako Pure Chemical Industries, Ltd.) was added to this, and the soft tissue was digested at 37° C. for one hour. This was followed by centrifugation at 1,200 rpm for five minutes, then supernatant was removed and PBS(−) was added to suspend the cartilage tissue. This was centrifuged at 1,200 rpm for five minutes, followed by removal of the supernatant, and washed three times by suspending in PBS(−). This was centrifuged at 1,200 rpm for five minutes, and then the cell pellet was digested by treatment with DMEM (Life Technologies Japan, Ltd.) containing 0.2% Type II collagenase (CLS-2, Worthington Biochemical Corp.) at 37° C. for three hours. Fetal bovine serum (Life Technologies Japan, Ltd.) was added at 10% v/v to stop the reaction, and this was vigorously pipetted using a 10-mL pipette (Nippon Becton Dickinson Company) to isolate the chondrocytes. […]

BMP-2: Factor added at 100 ng/mL to chondrocyte culture; increased alkaline phosphatase activity and promoted calcification
alkaline phosphatase activity (alkaline phosphatase staining) (cultured for 14 days): increase alkaline phosphatase activity | alizarin red staining property (calcification) (cultured for 21 days): remarkably increased the alizarin red staining property
